Results from patent US20030027835A1 (priority 1999, published 2003).

System: veratridine-induced glutamate release from rat spinal cord slices
Experiment: veratridine-induced [3H]-glutamate release from rat spinal cord slices
Details: for concentration from which glutamate release is inhibited: rat spinal cord slices, veratridine 40 μM

SMILES | concentration from which glutamate release is inhibited | further results
CCC(COC(=O)c1cc(OC)c(OC)c(OC)c1)(c1ccccc1)N(C)C.O=C(O)/C=C\C(=O)O (racemic) [Trimebutine, 2-dimethylamino-2-phenylbutyl 3,4,5-trimethoxybenzoate hydrogen maleate] | higher than 60 μM | –
CC[C@@](COC(=O)c1cc(OC)c(OC)c(OC)c1)(c1ccccc1)N(C)C [(S)-trimebutine] | ≥ 3 µM | –
CN1CC[C@]23c4c5ccc(O)c4O[C@H]2[C@@H](O)C=C[C@H]3[C@H]1C5 [Morphine, morphine] | – | activity on glutamate release (up to 100 μM): inactive
CCC(COC(=O)c1cc(OC)c(OC)c(OC)c1)(NC)c1ccccc1 (stereo not shown) [Nor-TMB, N-desmethyl trimebutine] | – | inhibitory effect on glutamate release (at 3, 10 and 30 μM, p<0.01): significant
